Results on one compound are retold here after publication PMC7926471 (Viruses, 2021).

This test deals with HCoV-229E. Briefly: Viral replication inhibition assay: HCoV-229E in MRC5 cells, PFU assay. It counts as cell-based, Human Coronavirus 229E.

In the case of `Oc1ccc(/C=C/c2cc(O)cc(O)c2)cc1` [Resveratrol, resveratrol], the “HCoV-229E replication, low viral load (in words)” value (MOI = 0.01, Figure 2) is reported as “inhibition of replication”. Also, the “effect of combinatory treatment on HCoV-229E (in words)” value (combinations of lopinavir/ritonavir, chloroquine, resveratrol, MOI 0.01, Figure 2B) was “did not observe any synergistic effect”. For the same compound, the “effect when cells were treated before or after the infection (in words)” value (pre-treated 3 h or post-treated 4 h, MOI 1, Figure 3) is given as “did not observe a significant difference”.
